Data set [1] deals with PR407: SP(HSA)-PTEN-L-cathepsin B*-HSA-6xHis (secreted form).
For data set [2], the system named is PR408: SP(HSA)-PTEN-L-cathepsinB**-HSA-6xHis (secreted form).

One substance from patent US20210079423 can be followed below.

For the substance “active CATSB (Cathepsin B; BioVision #7580-5)”, the “in vitro cleavage of the fusion, share released as PTEN-L-like fragment” value in data set [1] was “CATSB cleaved PR407 (SEQ ID NO:131; cDNA SEQ ID NO:159) and PR408 (SEQ ID NO:132; cDNA SEQ ID NO:160) to release a PTEN-L-like fragment at similar amounts (about 20% of total)”; in data set [2], “CATSB cleaved PR407 (SEQ ID NO:131; cDNA SEQ ID NO:159) and PR408 (SEQ ID NO:132; cDNA SEQ ID NO:160) to release a PTEN-L-like fragment at similar amounts (about 20% of total)”.
